Data published in the OPERA property sets (Mansouri et al. 2018).

CCCO[N+](=O)[O-]
log10 OH rate constant (cm³/molecule/s): -12.1
